# Experimental data published in patent US20040053822A1, “Inducing cellular immune responses to mage2/3 using peptide and nucleic acid compositions” (priority 2002, published 2004).
# Legend:
# [1] = test system: B7-supertype molecules (B*0702, B*3501, B*5101, B*5301, and B*5401); test: B7-supertype cross-reactive binding (five alleles); design: species or system human
# HLA-A*2402 = HLA-A*2402 (Homo sapiens, UniProt P04439, D101N/D140Y/D185E/E176V/E190D/F33S/G103R/G107R/I119L/I121M/I306V/K335N/L105A/L180Q/L300P/N151K/N90K/Q86E/Q94H/R106L/R138H/R89G/T104I/T345S/V100E/W191G/Y123F); test: Purified HLA class I peptide binding assay, A*2402; settings: HLA-A24 motif-bearing peptides, Table XXVIa
# [2] = test system: A3-supertype alleles (A*0301, A*1101, A*3101, A*3301, and A*6801); test: A3-supertype cross-reactive binding (five alleles); design: species or system human
# HLA-A*3101 = HLA-A*3101 (Homo sapiens, UniProt P04439, A270S/D185E/E176V/E277Q/F33T/G231S/G80R/H175R/I121M/I218V/I322F/K168Q/L300P/L318F/M331R/P217A/Q94H/R138Q/T323A/T345S/T97I/V358M); test: Purified HLA class I peptide binding assay, A*3101; settings: binding affinity, HLA-A3 supermotif-bearing peptides
# HLA-A*3301 = HLA-A*3301 (Homo sapiens, UniProt P04439, A270S/D185E/E176V/E277Q/E87N/F33T/G231S/H175R/I121M/I218V/I322F/K168Q/K210R/L300P/L318F/M331R/P217A/Q86R/Q94H/R138Q/T323A/T345S/T97I/V358M/Y195H); test: Purified HLA class I peptide binding assay, A*3301; settings: binding affinity, HLA-A3 supermotif-bearing peptides
SMILES,No. of B7 Alleles Crossbound [1],other results
CC[C@H](C)[C@H](NC(=O)[C@H](CC(C)C)NC(=O)[C@H](CC(C)C)NC(=O)CNC(=O)[C@H](C)NC(=O)[C@H](CCCCN)NC(=O)[C@@H]1CCCN1C(=O)[C@@H](N)Cc1ccccc1)C(=O)O,3,–
CC(C)C[C@H](NC(=O)[C@@H]1CCCN1C(=O)[C@@H]1CCCN1C(=O)[C@H](Cc1ccc(O)cc1)NC(=O)[C@@H](N)CO)C(=O)N[C@@H](Cc1c[nH]cn1)C(=O)N[C@@H](CCC(=O)O)C(=O)N[C@@H](Cc1c[nH]c2ccccc12)C(=O)O,–,IC50 (HLA-A*2402): 0.286 µM
CC[C@H](C)[C@H](NC(=O)[C@H](Cc1ccc(O)cc1)NC(=O)[C@H](CC(C)C)NC(=O)[C@H](Cc1c[nH]cn1)NC(=O)[C@H](CO)NC(=O)[C@@H](NC(=O)[C@@H]1CCCN1C(=O)[C@@H](N)C(C)C)[C@@H](C)CC)C(=O)N[C@@H](CC(C)C)C(=O)N[C@H](C(=O)O)C(C)C,2,–
CC(C)C[C@H](NC(=O)[C@H](C)NC(=O)[C@H](CCCNC(=N)N)NC(=O)[C@@H]1CCCN1C(=O)[C@@H](N)Cc1ccccc1)C(=O)N[C@H](C(=O)N[C@@H](CCC(=O)O)C(=O)N[C@H](C(=O)N[C@@H](CO)C(=O)N[C@@H](Cc1ccc(O)cc1)C(=O)N[C@H](C(=O)O)C(C)C)[C@@H](C)O)C(C)C,3,–
CC[C@H](C)[C@H](NC(=O)[C@H](Cc1ccc(O)cc1)NC(=O)[C@H](CO)NC(=O)[C@@H](NC(=O)[C@H](CCC(=O)O)NC(=O)[C@@H](NC(=O)[C@H](CC(C)C)NC(=O)[C@H](C)NC(=O)[C@H](CCCNC(=N)N)NC(=O)[C@@H]1CCCN1C(=O)[C@@H](N)Cc1ccccc1)C(C)C)[C@@H](C)O)C(=O)O,3,–
CC[C@H](C)[C@H](NC(=O)[C@@H](NC(=O)[C@@H](NC(=O)[C@H](CO)NC(=O)[C@@H](N)Cc1ccccc1)[C@@H](C)O)[C@@H](C)O)C(=O)N[C@@H](CC(N)=O)C(=O)N[C@@H](Cc1ccc(O)cc1)C(=O)N[C@H](C(=O)N[C@@H](CC(C)C)C(=O)N[C@@H](Cc1c[nH]c2ccccc12)C(=O)N[C@@H](CCCNC(=N)N)C(=O)O)[C@@H](C)O,–,No. of A3 Alleles Crossbound [2]: 3; IC50 (HLA-A*3101): 0.257 µM
CC[C@H](C)[C@H](NC(=O)[C@@H]1CCCN1C(=O)[C@@H]1CCCN1C(=O)[C@H](Cc1ccc(O)cc1)NC(=O)[C@H](CO)NC(=O)[C@@H](NC(=O)[C@H](Cc1c[nH]cn1)NC(=O)[C@@H]1CCCN1C(=O)[C@@H](N)Cc1ccccc1)[C@@H](C)CC)C(=O)O,5,–
CC[C@H](C)[C@H](NC(=O)[C@@H](NC(=O)[C@H](CC(C)C)NC(=O)[C@H](CC(C)C)NC(=O)CNC(=O)[C@@H](NC(=O)[C@H](CCCCN)NC(=O)[C@@H]1CCCN1C(=O)[C@@H](N)Cc1ccccc1)[C@@H](C)O)[C@@H](C)CC)C(=O)O,4,–
CC[C@H](C)[C@H](NC(=O)[C@H](Cc1c[nH]cn1)NC(=O)[C@@H]1CCCN1C(=O)[C@@H](N)Cc1ccccc1)C(=O)N[C@@H](CO)C(=O)N[C@@H](Cc1ccc(O)cc1)C(=O)N1CCC[C@H]1C(=O)N1CCC[C@H]1C(=O)N[C@@H](CC(C)C)C(=O)O,5,–
CC[C@H](C)[C@H](NC(=O)[C@H](Cc1ccc(O)cc1)NC(=O)[C@H](CC(C)C)NC(=O)[C@H](Cc1c[nH]cn1)NC(=O)[C@H](CO)NC(=O)[C@@H](NC(=O)[C@@H]1CCCN1C(=O)[C@@H](N)Cc1ccccc1)[C@@H](C)CC)C(=O)O,4,–
CC[C@H](C)[C@H](NC(=O)[C@H](CC(C)C)NC(=O)[C@H](C)N)C(=O)N[C@@H](CCC(=O)O)C(=O)N[C@H](C(=O)N[C@@H](CO)C(=O)N[C@@H](Cc1ccc(O)cc1)C(=O)N[C@H](C(=O)N[C@@H](CCCCN)C(=O)O)C(C)C)[C@@H](C)O,–,No. of A3 Alleles Crossbound [2]: 3
CC[C@H](C)[C@H](NC(=O)[C@H](CO)NC(=O)[C@H](CCC(N)=O)NC(=O)[C@H](CO)NC(=O)[C@H](Cc1c[nH]c2ccccc12)NC(=O)[C@H](CC(C)C)NC(=O)[C@@H]1CCCN1C(=O)[C@@H](N)Cc1ccccc1)C(=O)O,4,–
CC[C@H](C)[C@H](NC(=O)[C@H](Cc1ccc(O)cc1)NC(=O)[C@H](CC(C)C)NC(=O)[C@H](CCSC)NC(=O)[C@H](CO)NC(=O)[C@@H](NC(=O)[C@@H]1CCCN1C(=O)[C@@H](N)C(C)C)[C@@H](C)CC)C(=O)N[C@@H](CC(C)C)C(=O)O,3,–
CC(C)[C@H](NC(=O)[C@@H](N)CO)C(=O)N[C@@H](Cc1ccccc1)C(=O)N[C@@H](C)C(=O)N[C@@H](Cc1c[nH]cn1)C(=O)N1CCC[C@H]1C(=O)N[C@@H](CCCNC(=N)N)C(=O)N[C@@H](CCCCN)C(=O)O,–,No. of A3 Alleles Crossbound [2]: 3; IC50 (HLA-A*3301): > 10 µM
CC[C@H](C)[C@H](NC(=O)[C@@H](NC(=O)[C@H](CC(C)C)NC(=O)[C@H](CC(C)C)NC(=O)CNC(=O)[C@H](C)NC(=O)[C@H](CCCCN)NC(=O)[C@@H]1CCCN1C(=O)[C@@H](N)CCSC)[C@@H](C)CC)C(=O)O,3,–
CC[C@H](C)[C@H](NC(=O)[C@H](Cc1ccc(O)cc1)NC(=O)[C@H](CC(C)C)NC(=O)[C@H](Cc1c[nH]cn1)NC(=O)[C@H](CO)NC(=O)[C@@H](NC(=O)[C@@H]1CCCN1C(=O)[C@@H](N)Cc1ccccc1)[C@@H](C)CC)C(=O)N[C@@H](CC(C)C)C(=O)N[C@H](C(=O)O)C(C)C,5,–
CC[C@H](C)[C@H](NC(=O)[C@@H](NC(=O)[C@@H](NC(=O)[C@@H](N)CO)[C@@H](C)O)[C@@H](C)O)C(=O)N[C@@H](CC(N)=O)C(=O)N[C@@H](Cc1ccc(O)cc1)C(=O)N[C@H](C(=O)N[C@@H](CC(C)C)C(=O)N[C@@H](Cc1c[nH]c2ccccc12)C(=O)N[C@@H](CCCCN)C(=O)O)[C@@H](C)O,–,No. of A3 Alleles Crossbound [2]: 3; IC50 (HLA-A*3101): > 10 µM; IC50 (HLA-A*3301): > 10 µM
CC[C@H](C)[C@H](NC(=O)[C@H](CC(C)C)NC(=O)[C@H](CC(C)C)NC(=O)CNC(=O)[C@H](C)NC(=O)[C@H](CCCCN)NC(=O)[C@@H]1CCCN1C(=O)[C@@H](N)Cc1ccccc1)C(=O)N[C@H](C(=O)N[C@H](C(=O)O)C(C)C)[C@@H](C)CC,3,–
CC(C)C[C@H](NC(=O)[C@H](CC(C)C)NC(=O)[C@H](CC(C)C)NC(=O)[C@H](Cc1ccccc1)NC(=O)[C@H](Cc1c[nH]cn1)NC(=O)[C@@H](NC(=O)[C@@H](N)CC(C)C)C(C)C)C(=O)N[C@@H](CCCCN)C(=O)N[C@@H](CCCCN)C(=O)O,–,No. of A3 Alleles Crossbound [2]: 3; IC50 (HLA-A*3101): > 10 µM; IC50 (HLA-A*3301): > 10 µM

# Continued, in another order:
No. of B7 Alleles Crossbound [1],SMILES,other results
3,CC[C@H](C)[C@H](NC(=O)[C@H](CC(C)C)NC(=O)[C@H](C)NC(=O)[C@H](CCCNC(=N)N)NC(=O)[C@@H]1CCCN1C(=O)[C@@H](N)Cc1ccccc1)C(=O)N[C@@H](CCC(=O)O)C(=O)N[C@H](C(=O)N[C@@H](CO)C(=O)N[C@@H](Cc1ccc(O)cc1)C(=O)N[C@H](C(=O)O)C(C)C)[C@@H](C)O,–
3,CC[C@H](C)[C@H](NC(=O)[C@H](CO)NC(=O)[C@H](CO)NC(=O)[C@H](C)NC(=O)CNC(=O)[C@H](CCC(N)=O)NC(=O)[C@@H]1CCCN1C(=O)[C@@H](N)Cc1ccccc1)C(=O)O,–
5,CSCC[C@H](NC(=O)[C@@H](NC(=O)[C@@H](NC(=O)[C@@H]1CCCN1C(=O)[C@@H](N)Cc1ccccc1)[C@@H](C)O)[C@@H](C)O)C(=O)N[C@@H](CC(N)=O)C(=O)N[C@@H](Cc1ccc(O)cc1)C(=O)N1CCC[C@H]1C(=O)N[C@@H](CC(C)C)C(=O)O,–
5,CC[C@H](C)[C@H](NC(=O)[C@@H](NC(=O)[C@H](Cc1ccc(O)cc1)NC(=O)[C@H](CC(C)C)NC(=O)[C@H](Cc1c[nH]cn1)NC(=O)CNC(=O)[C@@H](NC(=O)[C@@H]1CCCN1C(=O)[C@@H](N)Cc1ccccc1)[C@@H](C)CC)[C@@H](C)CC)C(=O)O,–
5,CC[C@H](C)[C@H](NC(=O)[C@H](Cc1ccccc1)NC(=O)[C@@H](NC(=O)[C@H](Cc1ccc(O)cc1)NC(=O)[C@H](CC(C)C)NC(=O)[C@H](Cc1c[nH]cn1)NC(=O)CNC(=O)[C@@H](NC(=O)[C@@H]1CCCN1C(=O)[C@@H](N)Cc1ccccc1)[C@@H](C)CC)[C@@H](C)CC)C(=O)O,–
5,CC[C@H](C)[C@H](NC(=O)[C@@H]1CCCN1C(=O)[C@H](Cc1ccc(O)cc1)NC(=O)[C@H](CC(N)=O)NC(=O)[C@H](CCSC)NC(=O)[C@@H](NC(=O)[C@@H](NC(=O)[C@@H]1CCCN1C(=O)[C@@H](N)Cc1ccccc1)[C@@H](C)O)[C@@H](C)O)C(=O)O,–
5,CC[C@H](C)[C@H](NC(=O)[C@H](Cc1ccc(O)cc1)NC(=O)[C@H](CC(C)C)NC(=O)[C@H](Cc1c[nH]cn1)NC(=O)CNC(=O)[C@@H](NC(=O)[C@@H]1CCCN1C(=O)[C@@H](N)Cc1ccccc1)[C@@H](C)CC)C(=O)N[C@@H](Cc1ccccc1)C(=O)N[C@@H](C)C(=O)O,–
3,CC[C@H](C)[C@H](NC(=O)[C@H](CC(C)C)NC(=O)[C@H](CC(C)C)NC(=O)CNC(=O)[C@@H](NC(=O)[C@H](CCCCN)NC(=O)[C@@H]1CCCN1C(=O)[C@@H](N)Cc1ccccc1)[C@@H](C)O)C(=O)O,–
4,CC[C@H](C)[C@H](NC(=O)[C@H](Cc1ccc(O)cc1)NC(=O)[C@H](CO)NC(=O)[C@@H](NC(=O)[C@H](CCC(=O)O)NC(=O)[C@@H](NC(=O)[C@H](CC(C)C)NC(=O)[C@H](C)NC(=O)[C@H](CCCNC(=N)N)NC(=O)[C@@H]1CCCN1C(=O)[C@@H](N)Cc1ccccc1)[C@@H](C)CC)[C@@H](C)O)C(=O)O,–
